The values that follow are results of earlier work, collected in patent US5631263A, “Use of delta opioid receptor antagonists to treat immunoregulatory disorders” (Minneapolis Medical Research Foundation, priority 1995, dated 1997).

The data set concerns guinea pig ileum (GPI). The conditions noted are these: standard result; cited from earlier work.

For the compound `C=CCN1CC[C@]23c4c5ccc(O)c4O[C@H]2C(=O)CC[C@@]3(O)[C@H]1C5` [naloxone], the “block of morphine's effects” value is listed as “block morphine's effects”.
